Earlier results as cited in patent US11883631B2 (priority 2015, dated 2024).

Conditions: 35 adults; between start of propofol infusion and incision; remifentanil by target controlled infusion

CC(C)c1cccc(C(C)C)c1O [propofol]
subjects in whom hypotension was treated: 7 subjects
